In ChEMBL document CHEMBL1140091, “2-aminothienopyridazines as novel adenosine A1 receptor allosteric modulators and antagonists” (J Med Chem, 2008) one finds Activity data, which are given here for 2 compounds.

Chains of the proteins cited; added tags and fusions are not shown.
UniProt P30542, whole entry: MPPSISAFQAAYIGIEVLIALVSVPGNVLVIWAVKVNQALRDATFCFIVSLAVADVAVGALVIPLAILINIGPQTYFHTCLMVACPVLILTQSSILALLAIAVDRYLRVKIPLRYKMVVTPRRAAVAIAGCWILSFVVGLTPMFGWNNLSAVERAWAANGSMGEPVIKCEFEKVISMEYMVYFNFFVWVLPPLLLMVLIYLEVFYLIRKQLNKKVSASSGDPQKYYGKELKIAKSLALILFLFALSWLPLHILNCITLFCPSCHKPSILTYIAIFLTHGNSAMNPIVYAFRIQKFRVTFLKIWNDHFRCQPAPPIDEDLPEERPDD

Activity calls are given as the source filed them. The calls are words filed in the database; no cut-off is given here.

For the assay, the target named is Adenosine receptor A1 (Homo sapiens, UniProt P30542). Put plainly: Antagonist activity at human adenosine A1 receptor expressed in FlpIn-CHO cells assessed as inhibition of R-PIA-mediated ERK1/2 phosphorylation. It counts as functional, cell-based.

Regarding `Nc1scc2c(C(=O)O)nn(-c3ccccc3)c(=O)c12`, the result was inactive.
The entry for `Cc1sc(N)c(C(=O)c2cccc(C(F)(F)F)c2)c1C` is “inactive”.
